# CycPeptMPDB entries from one study

PAMPA measures passive passage through an artificial lipid membrane. Permeability is given as log10 of P in cm/s; higher (less negative) is more permeable.

* CCCC[C@@H]1NC(=O)[C@H](CC(C)C)N(C)C(=O)CN(Cc2ccccc2)C(=O)[C@H](Cc2ccc3ccccc3c2)NC(=O)CN(CC(C)C)C(=O)[C@H]2CCCN2C1=O: PAMPA -7.78 (log10 cm/s)
* CCCC[C@@H]1NC(=O)[C@H](CC(C)C)N(C)C(=O)CN(CCCc2ccccc2)C(=O)[C@H](CC(C)C)NC(=O)CN(CC(C)C)C(=O)[C@H]2CCCN2C1=O: PAMPA -6.02 (log10 cm/s)
* CCCC[C@@H]1NC(=O)[C@H](CC(C)C)N(C)C(=O)CN(CC2CCOCC2)C(=O)[C@H](CC(C)C)NC(=O)CN(CCC)C(=O)[C@H]2CCCN2C1=O: PAMPA -5.34 (log10 cm/s)
* CCCC[C@@H]1NC(=O)[C@H](CC(C)C)N(C)C(=O)CN(CC2CCCCC2)C(=O)[C@H](CC(C)C)NC(=O)CN(CC(C)C)C(=O)[C@H]2CCCN2C1=O: PAMPA -6.20 (log10 cm/s)
* CCCC[C@@H]1NC(=O)[C@H](CC(C)C)N(C)C(=O)CN(Cc2ccccc2)C(=O)[C@H](C)NC(=O)CN(CCCCc2ccccc2)C(=O)[C@H]2CCCN2C1=O: PAMPA -5.77 (log10 cm/s)
* CCCC[C@@H]1NC(=O)[C@H](CC(C)C)N(C)C(=O)CN(CC2CCOCC2)C(=O)[C@H](CC(C)C)NC(=O)CN(CC)C(=O)[C@H]2CCCN2C1=O: PAMPA -5.75 (log10 cm/s)
* CCCC[C@@H]1NC(=O)[C@H](CC(C)C)N(C)C(=O)CN(CCOC)C(=O)[C@H](CC(C)C)NC(=O)CN(Cc2ccc(Cl)cc2)C(=O)[C@H]2CCCN2C1=O: PAMPA -5.34 (log10 cm/s)
* CCCC[C@@H]1NC(=O)[C@H](CC(C)C)N(C)C(=O)CN(Cc2ccccc2)C(=O)[C@H](CC(C)C)NC(=O)CN(CCCOC(C)C)C(=O)[C@H]2CCCN2C1=O: PAMPA -5.17 (log10 cm/s)
* CCCC[C@@H]1NC(=O)[C@H](CC(C)C)N(C)C(=O)CN(CCCc2ccccc2)C(=O)[C@H](C)NC(=O)CN(Cc2ccccc2Cn2cccn2)C(=O)[C@H]2CCCN2C1=O: PAMPA -5.08 (log10 cm/s)
* CCCC[C@@H]1NC(=O)[C@H](CC(C)C)N(C)C(=O)CN(Cc2ccccc2)C(=O)[C@H](C)NC(=O)CN(CC)C(=O)[C@H]2CCCN2C1=O: PAMPA -5.45 (log10 cm/s)
* CCCC[C@@H]1NC(=O)[C@H](CC(C)C)N(C)C(=O)CN(CCOC)C(=O)[C@H](Cc2ccc3ccccc3c2)NC(=O)CN(CCC)C(=O)[C@H]2CCCN2C1=O: PAMPA -5.34 (log10 cm/s)
* CCCC[C@@H]1NC(=O)[C@H](CC(C)C)N(C)C(=O)CN(CCCN2CCCC2=O)C(=O)[C@H](CC(C)C)NC(=O)CN(CCN2CCOCC2)C(=O)[C@H]2CCCN2C1=O: PAMPA -7.77 (log10 cm/s)
* CCCC[C@@H]1NC(=O)[C@H](CC(C)C)N(C)C(=O)CN(CCOC)C(=O)[C@H](Cc2ccccc2)NC(=O)CN(Cc2cc(CC(C)C)on2)C(=O)[C@H]2CCCN2C1=O: PAMPA -5.38 (log10 cm/s)
* CCCC[C@@H]1NC(=O)[C@H](CC(C)C)N(C)C(=O)CN(CCCc2cnn(C)c2)C(=O)[C@H](Cc2ccc3ccccc3c2)NC(=O)CN(CCCOC(C)C)C(=O)[C@H]2CCCN2C1=O: PAMPA -5.44 (log10 cm/s)
* CCCC[C@@H]1NC(=O)[C@H](CC(C)C)N(C)C(=O)CN(CCc2cccnc2)C(=O)[C@H](C)NC(=O)CN(Cc2ccc(Cl)cc2)C(=O)[C@H]2CCCN2C1=O: PAMPA -5.65 (log10 cm/s)
* CCCC[C@@H]1NC(=O)[C@H](CC(C)C)N(C)C(=O)CN(CCCN2CCCC2=O)C(=O)[C@H](Cc2ccc3ccccc3c2)NC(=O)CN(CCCCc2ccccc2)C(=O)[C@H]2CCCN2C1=O: PAMPA -7.28 (log10 cm/s)
* CCCC[C@@H]1NC(=O)[C@H](CC(C)C)N(C)C(=O)CN(CCc2cccnc2)C(=O)[C@H](C)NC(=O)CN(CC(C)C)C(=O)[C@H]2CCCN2C1=O: PAMPA -6.54 (log10 cm/s)

Excerpt, the opening 2 entries:

{"smiles": "CCCC[C@@H]1NC(=O)[C@H](CC(C)C)N(C)C(=O)CN(Cc2ccccc2)C(=O)[C@H](Cc2ccc3ccccc3c2)NC(=O)CN(CC(C)C)C(=O)[C@H]2CCCN2C1=O", "PAMPA (log10 cm/s)": "-7.78"}
{"smiles": "CCCC[C@@H]1NC(=O)[C@H](CC(C)C)N(C)C(=O)CN(CCCc2ccccc2)C(=O)[C@H](CC(C)C)NC(=O)CN(CC(C)C)C(=O)[C@H]2CCCN2C1=O", "PAMPA (log10 cm/s)": "-6.02"}

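Lipid, pH, incubation time, direction and concentration are not recorded in the data file. Other peptides of the study may be missing here. Peptides that the database sets to -10, its floor, are left out.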

Collected by the curators of CycPeptMPDB (Li et al. 2023) from Furukawa et al. 2016, doi:10.1021/acs.jmedchem.6b01246.